Molecular target: PIK3CD (Human) (UniProt O00329)
Experiment: Assessment of PIK3CD Kinase Activity

Chains of the proteins cited; added tags and fusions are not shown. Lines headed by an entry give the natural chain unless they say otherwise; changes in a name come on top.
UniProt O00329: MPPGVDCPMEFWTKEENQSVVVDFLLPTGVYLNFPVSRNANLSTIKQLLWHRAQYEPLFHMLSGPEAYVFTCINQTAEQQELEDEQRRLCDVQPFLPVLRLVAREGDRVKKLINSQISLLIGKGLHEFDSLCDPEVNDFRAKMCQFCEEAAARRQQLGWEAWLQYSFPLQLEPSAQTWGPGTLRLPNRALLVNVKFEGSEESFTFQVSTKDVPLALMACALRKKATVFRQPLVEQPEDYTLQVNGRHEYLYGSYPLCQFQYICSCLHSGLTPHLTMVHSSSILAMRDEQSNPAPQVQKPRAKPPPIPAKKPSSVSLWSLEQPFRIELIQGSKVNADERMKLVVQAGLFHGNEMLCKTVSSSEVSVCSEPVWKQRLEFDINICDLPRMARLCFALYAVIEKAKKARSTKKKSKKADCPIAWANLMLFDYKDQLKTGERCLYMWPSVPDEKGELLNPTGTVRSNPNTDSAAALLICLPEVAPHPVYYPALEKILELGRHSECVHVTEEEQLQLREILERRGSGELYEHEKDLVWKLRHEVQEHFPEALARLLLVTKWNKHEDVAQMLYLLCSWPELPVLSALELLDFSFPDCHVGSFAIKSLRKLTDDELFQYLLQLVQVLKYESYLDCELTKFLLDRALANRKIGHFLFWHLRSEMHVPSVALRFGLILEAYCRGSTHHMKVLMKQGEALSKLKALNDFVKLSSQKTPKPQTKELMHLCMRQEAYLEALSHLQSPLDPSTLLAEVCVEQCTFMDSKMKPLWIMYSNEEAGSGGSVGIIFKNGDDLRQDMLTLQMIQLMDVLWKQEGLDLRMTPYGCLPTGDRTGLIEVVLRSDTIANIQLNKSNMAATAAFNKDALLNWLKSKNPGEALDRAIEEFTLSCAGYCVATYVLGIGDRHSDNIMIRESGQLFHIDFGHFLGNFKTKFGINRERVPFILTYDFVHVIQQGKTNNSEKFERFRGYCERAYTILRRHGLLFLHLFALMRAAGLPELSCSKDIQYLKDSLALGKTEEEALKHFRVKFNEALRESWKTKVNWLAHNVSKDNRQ

Cc1ccccc1-c1nc2c(C)cccc2cc1CNc1ncnc2[nH]nc(I)c12
IC50: 50 to 250 nM

COc1cc(COc2cc3cccc(C)c3nc2-c2ccccc2C)cc(OC)c1
IC50: 500 to 1500 nM

— the Kinase Knowledgebase extract (Sharma et al. 2016)
